# In patent US8512678B2, “Non-invasive, in vivo fluorescent imaging of the nervous system in whole living animal” (priority 2005, dated 2013):
# What was measured:
# GFAP-GFP transgene = assay: Non-invasive in vivo neural imaging of GFAP-GFP transgenic neonatal mice (relative fluorescence, IVIS); set-up: species or system mouse; details: 4 doses of 8 mg/kg sc every 2 hours, 24 hours after treatment, p<0.01
# Source text: The generation and genotyping of the transgenic GFAP-GFP mice were done as previously described (Zhuo et al., 1997). Neonatal mice of FVB/N background at 4 days of age, weighing 2.0 g-2.5 g were used in the present study. Animal husbandry was provided by National University of Singapore animal holding unit facility. The experimental protocol covering the current study was approved by the Institutional Animal Care and Use Committee.
# The neonatal mice received a single subcutaneous (sc) injection of 2′-CH3-MPTP (12 mg/kg in saline) at 0 hour. Saline was used as a vehicle for the control group. Neural imaging was subsequently performed at 2 hr, 4 hr, 6 hr and 8 hr post-treatment.
# Non-invasive imaging was conducted using an IVIS Imaging System 100 Series (Xenogen Corp., Alameda, Calif., U.S.A.). […] Result of the neurotoxic effect of 2′-CH3-MPTP on the mice was expressed as relative fluorescence (RF), a ratio between the total GFP fluorescent signals detected from the region of interest (ROI) in transgenic (Tg) mouse and the tissue autofluorescence signals from the ROI in non-transgenic (nTg) mouse (TgROI/nTgROI). The area of the ROI for both mice is exactly the same and is identical throughout all the ROI used in the study to quantify the radiances. […]
# GFAP gene expression = assay: Real-time RT-PCR of brain RNA, GFAP gene expression; type: in vivo, mouse; details: for enhancement in gene expression of GFAP compared to untreated mice: 24 hours after treatment, 4×8 mg/kg, p<0.01
# Procedure: (§1) […] The brain was removed and then lysed in buffer RA1 and β-mercaptoethanol. Total RNA from the brain was isolated using NucleoSpin® RNA II kit. Total RNA was reverse-transcribed with random hexamers and real-time RT-PCR was performed on the cDNA to quantify gene expression.
# (§2) For mice treated with MPTP (1×12 mg/kg), they were sacrificed 2 hours after treatment. The brain was removed and then lysed in buffer RA1 and β-mercaptoethanol. Total RNA from the brain was isolated using NucleoSpin® RNA II kit. Total RNA was reverse-transcribed with random hexamers and real-time RT-PCR was performed on the cDNA to quantify gene expression. The same procedure is carried out for mice treated with KA (1×2 mg/kg).
# GFP gene expression = assay: Real-time RT-PCR of brain RNA, GFP gene expression; type: in vivo, mouse; details: transgenic mice
# Procedure: as §1, §2
smiles,measurement,setting,value
"CN1CC=C(c2ccccc2)CC1 [MPTP, 1-methyl-4-phenyl-1,2,3,6-tetrahydropyridine]","increase in relative fluorescence (RF), mean, over the control group",GFAP-GFP transgene,15%
same,enhancement in gene expression of GFAP compared to untreated mice,GFAP gene expression; non-transgenic mouse,~88%
same,enhancement in gene expression of GFAP,"GFAP gene expression; transgenic mice, 2 hours after treatment, 1×12 mg/kg, p<0.001",about 47%
same,enhancement in gene expression of GFAP compared to untreated mice,GFAP gene expression; transgenic mouse,about 91%
same,enhancement in gene expression of GFP,"GFP gene expression; 2 hours after treatment, 1×12 mg/kg, p<0.01",~20%
same,enhancement in gene expression of GFP compared to untreated mice,"GFP gene expression; 24 hours after treatment, 4×8 mg/kg",no statistically significant enhancement
